Source: US12194007B2, “Pharmaceutical composition for preventing or treating cancer, comprising gossypol, phenformin, and anticancer agent” (National Cancer Center, priority 2018, dated 2025)

System: UACC62 cell line or an A375 cell line
Experiment: SRB cell proliferation assay, melanoma cell lines
Assay type: cell-based
Settings: vemurafenib 0.5 μM, cisplatin 10 μM or oxaliplatin 10 μM + gossypol 5 μM + phenformin 100 μM

O=C1[O][Pt]2([NH][C@@H]3CCCC[C@H]3[NH]2)[O]C1=O [oxaliplatin]
synergistic effect of anticancer action when mixed with gossypol and phenformin: not exhibited
